From ChEMBL document CHEMBL4024707, “Using gene expression database to uncover biology functions of 1,4-disubstituted 1,2,3-triazole analogues synthesized via a copper (I)-catalyzed reaction” (Eur J Med Chem, 2017)

Tests used:
Format in all cases: functional
Hep 3B2 [1] = assay: Cell cycle arrest in human Hep3B cells assessed as accumulation at G0/G1 phase at 2.5 uM after 24 hrs by propidium iodide staining based flow cytometry (reference value: 36.3 to 39.0%)
Hep 3B2 [2] = assay: Cell cycle arrest in human Hep3B cells assessed as accumulation at sub-G1 phase at 20 uM after 24 hrs by propidium iodide staining based flow cytometry (reference value: 1.9 to 3.6%)
Hep 3B2 [3] = assay: Cell cycle arrest in human Hep3B cells assessed as accumulation at G0/G1 phase at 5 uM after 48 hrs by propidium iodide staining based flow cytometry (reference value: 39.7 to 40.4%)
Hep 3B2 [4] = assay: Cell cycle arrest in human Hep3B cells assessed as accumulation at G0/G1 phase at 5 uM after 24 hrs by propidium iodide staining based flow cytometry (reference value: 36.3 to 39.0%)

CNC(=O)c1cc(Oc2ccc(NC(=O)Nc3ccc(Cl)c(C(F)(F)F)c3)cc2)ccn1 [SORAFENIB] showed an Activity (Hep 3B2 [1]) of 38.1%, an Activity (Hep 3B2 [2]) of 16.6% and an Activity (Hep 3B2 [3]) of 42.3%. For the same compound, the Activity (Hep 3B2 [4]) was 38.1%.
